# Measurements from patent US20230357354A1, “CD38-BINDING CD31 PEPTIDES AND USES THEREOF” (ENCEFA, priority 2020, published 2023).
# Experiments:
# [1] = system: LPS-induced type 2 diabetes (T2DM) mouse model; test: LPS-induced type 2 diabetes (T2DM) mouse model; format: in vivo, mice; settings: s.c. daily for one week; LPS 700 µg/kg ip daily for two weeks
# Protocol: Mice (n = 5 per group) were daily injected with LPS (700 µg/kg ip) for two weeks. One week after LPS treatment initiation, mice were daily injected with SEQ ID NO: 10 (50 µg/kg s.c.) for one week.
# (§1) Glycaemia was measured using a Contour XT glucometer (Ascensia Diabetes Care) and appropriate measurement strips (Contour Next). Fasting glycaemia was first measured (T0), and then glucose was administered via i.p. injection (2 g/kg). Glycaemia measurements were performed 15, 30, 90, and 120 minutes after i.p. glucose injection.
# (§2) Blood samples were collected before glucose injection as well as 15 minutes after glucose injection. Sera were obtained by centrifuging blood samples at 2500 g for 20 minutes at 4° C. and frozen at -80° C. Serum insulin was measured using an ultrasensitive mouse insulin ELISA kit according to the manufacturer’s instructions (Crystal Chem).
# [2] = system: cat PBMCs; test: Glucose uptake assay in cat PBMCs; format: cell-based; settings: vs PBS
# Protocol: (§3) Human Daudi cells cultured in 75 cm^2 flask were centrifuged ( 300 g, 3 minutes), resuspended in warmed PBS supplemented with 10 % goat serum and seeded in 96-well microplate ( 100 µL, 2 × 10^6 cells/mL) in order to deprive cells from glucose. Cells were treated with test treatments (10 µg/mL) for 1 hour (37° C.). Cells were then incubated with 500 µM of the fluorescent and non-metabolizable glucose analog 2-NBDG ((2R,3R,4S,5R)-3,4,5,6-tetrahydroxy-2-[(7-nitro-2,1,3-benzoxadiazol-4-yl)amino]hexanal; Thermo Fischer) for 30 minutes at 37° C., and washed 4 times with PBS containing 10 % of goat serum. Images were acquired using a Zeiss microscope (20 X) and the relative fluorescence intensity of 30 cells was determined using Fiji.
# (§4) The same method used for human Daudi cells was used for dog and cat PBMCs, with 200,000 cells plated per well.
# [3] = system: dog PBMCs; test: Glucose uptake assay in dog PBMCs; format: cell-based; settings: vs PBS
# Protocol: as §3, §4
# [4] = system: human Daudi cells; format: cell-based; settings: 1 h
# [5] = system: DSS mouse model; test: DSS-induced colitis mouse model, colon length; format: in vivo, mice; settings: 300 µg/kg s.c. daily from start of DSS; 3% DSS 5 days, sacrifice day 9
# Protocol: (§5) Experimental colitis was induced in mice by giving drinking water ad libitum containing 3 % (w/v) DSS for 5 days, while control mice received tap water only. Test compounds were intravenously administered (15 mg/kg) when DSS treatment began. Mice were sacrificed 9 days after the beginning of DSS treatment.
# Administration of DSS causes human ulcerative colitis-like pathologies due to its toxicity to colonic epithelial cells, which results in compromised mucosal barrier function. Clinical observations similar to human pathologies, such as weight loss, diarrhea and occult blood in stool, are commonly observed in the DSS model. Moreover, diminution of the colon’s length is characteristic of this model.
# as §5, with “3%” for “3 %”, “compounds (SEQ ID NO: 6 and SEQ ID NO: 10)” for “compounds”, “subcutaneously” for “intravenously”, “everyday (300 µg/kg) starting” for “(15 mg/kg)”
# [6] = system: HFD mouse model; test: Short high fat diet-induced obesity (HFD) mouse model; format: in vivo, mice; settings: s.c. every day, high fat diet 3 days
# Protocol: Animals were exposed to normal diet (10% calories from fat) or high fat diet (60% calories from fat) for 3 days. Test compound (SEQ ID NO: 10, 300 µg/kg s.c.) was administered every day starting the day before exposure to HFD. Three days after inception of the HFD regimen, mice were fasted for 5 hours and a glucose challenge was performed.
# as §1, with “injection. Data were expressed as area under the curve (AUC).” for “injection.”
# as §2, with “2,500” for “2500”, “Chem). Data were expressed as area under the curve (AUC).” for “Chem).”
# [7] = system: folic acid-induced acute kidney injury model; test: Folic acid-induced acute kidney injury (AKI) mouse model, blood urea nitrogen; format: in vivo, mice; settings: s.c. every day; folic acid 250 mg/kg
# Protocol: Animals were injected with PBS or folic acid (250 mg/kg dissolved in 0.3 M sodium bicarbonate). Blood samples were collected every day for 3 consecutive days. Sera were obtained by centrifuging blood samples at 2,500 g for 20 minutes at 4° C. and frozen at -80° C. BUN levels were determined using a BUN assay kit (ThermoFischer) according to manufacturer’s instructions.
structure (smiles),measurement,setting,value
CC[C@H](C)[C@@H]1NC(=O)[C@H](C(C)C)NC(=O)[C@H](Cc2ccccc2)NC(=O)[C@H](CC(N)=O)NC(=O)[C@H](CCC(N)=O)NC(=O)[C@H](CC(=O)O)NC(=O)CNC(=O)[C@@H]2CCCN2C(=O)[C@H](CC(N)=O)NC(=O)[C@H](CCCCN)NC(=O)[C@H](CCC(=O)O)NC(=O)[C@H](CCCNC(=N)N)NC(=O)[C@H](CCCCN)NC(=O)[C@H](CC(C)C)NC(=O)[C@H](CCCCN)NC(=O)[C@H](C(C)C)NC(=O)[C@H](CCSC)NC(=O)[C@@H](N)CSSC[C@@H](C(=O)O)NC(=O)[C@H](Cc2ccccc2)NC(=O)[C@H](CCC(=O)O)NC(=O)[C@H](CC(C)C)NC1=O [SEQ ID NO: 10],blood glucose and insulin levels,[1],normalize blood glucose and insulin levels
same,insulin sensitivity (HOMA-IR index),[1],maintain insulin sensitivity
same,glucose uptake-increasing activity,[2],also observed
same,glucose uptake-increasing activity,[3],also observed
same,EC50,[4],~2 pM
same,colon length,[5],protect gut from shortening
same,weight gain,[6],reduce weight gain
same,glycaemia and insulin response after glucose challenge,[6]; glucose 2 g/kg i.p.,normalize glycaemia and insulin response
same,kidney function assessed by blood urea nitrogen levels,[7],ameliorate kidney function
